Experiment [1] addresses Mu-type opioid receptor (Homo sapiens) (UniProt P35372). The experiment is described as follows: Agonist activity at human mu opioid receptor transfected in CHO cells assessed as stimulation of [35S]GTPgammaS binding by liquid scintillation counting analysis relative to control. For orientation: GTPγS resists hydrolysis and so accumulates on activated G proteins.
Experiment [2] concerns the target Nociceptin receptor (Homo sapiens) (UniProt P41146). The experiment is described as follows: Agonist activity at human nociceptin receptor transfected in CHO cells assessed as stimulation of [35S]GTPgammaS binding by liquid scintillation counting analysis relative to control.
The species named for experiment [3] is Homo sapiens. The experiment is described as follows: Selectivity for human nociceptin receptor over human delta opioid receptor.
The species named for experiment [4] is Homo sapiens. Description: Selectivity for human nociceptin receptor over human kappa opioid receptor.
The species entered for experiment [5] is Homo sapiens. Description: Selectivity for human nociceptin receptor over human mu opioid receptor.
In experiment [6] the target is Kappa-type opioid receptor (Homo sapiens) (UniProt P41145). Description: Agonist activity at human kappa opioid receptor transfected in CHO cells assessed as stimulation of [35S]GTPgammaS binding by liquid scintillation counting analysis relative to control.

Amino acid sequences for entries named in this document (tags omitted).
UniProt P35372, whole entry: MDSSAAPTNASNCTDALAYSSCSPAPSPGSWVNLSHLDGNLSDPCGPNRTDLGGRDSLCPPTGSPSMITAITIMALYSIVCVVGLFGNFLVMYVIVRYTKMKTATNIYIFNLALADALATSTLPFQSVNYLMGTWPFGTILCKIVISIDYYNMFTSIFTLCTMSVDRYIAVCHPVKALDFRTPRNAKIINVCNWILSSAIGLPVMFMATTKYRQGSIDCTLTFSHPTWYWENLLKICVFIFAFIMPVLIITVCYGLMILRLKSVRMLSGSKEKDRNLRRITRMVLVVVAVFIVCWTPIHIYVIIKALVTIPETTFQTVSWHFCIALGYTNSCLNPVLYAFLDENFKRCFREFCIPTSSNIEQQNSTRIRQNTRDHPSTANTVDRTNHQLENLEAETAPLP
UniProt P41146, whole entry: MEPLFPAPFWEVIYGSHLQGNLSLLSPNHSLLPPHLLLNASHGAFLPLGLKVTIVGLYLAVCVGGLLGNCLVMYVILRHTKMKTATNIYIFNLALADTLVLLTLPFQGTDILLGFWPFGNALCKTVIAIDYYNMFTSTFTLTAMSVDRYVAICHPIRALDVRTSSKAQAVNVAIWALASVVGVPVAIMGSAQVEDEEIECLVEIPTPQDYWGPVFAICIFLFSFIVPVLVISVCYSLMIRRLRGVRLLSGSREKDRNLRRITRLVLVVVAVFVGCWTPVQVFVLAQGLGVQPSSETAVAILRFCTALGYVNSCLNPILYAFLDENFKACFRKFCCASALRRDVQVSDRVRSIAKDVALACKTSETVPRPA
UniProt P41145, whole entry: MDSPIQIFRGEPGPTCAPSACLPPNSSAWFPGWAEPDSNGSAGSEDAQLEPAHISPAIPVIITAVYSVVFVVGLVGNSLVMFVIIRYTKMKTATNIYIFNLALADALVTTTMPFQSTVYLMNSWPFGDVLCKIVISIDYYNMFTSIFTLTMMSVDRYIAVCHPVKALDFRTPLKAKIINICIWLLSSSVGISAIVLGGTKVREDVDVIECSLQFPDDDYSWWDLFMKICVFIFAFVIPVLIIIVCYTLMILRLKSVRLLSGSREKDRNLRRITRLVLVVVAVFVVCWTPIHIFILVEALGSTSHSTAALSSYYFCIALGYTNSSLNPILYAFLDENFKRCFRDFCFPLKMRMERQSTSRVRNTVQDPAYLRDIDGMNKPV

The source of these data is ChEMBL document CHEMBL2385080, “Designing bifunctional NOP receptor-mu opioid receptor ligands from NOP receptor-selective scaffolds. Part I” (2013).

As for `O=C1Cc2ccccc2N1C1CCN(Cc2ccccc2)CC1`, the results for the Activity in experiment [1] and in experiment [2] were 36% and 18%, respectively.
The corresponding values for `CC1CC(=O)N(C2CCN(C3CCCCCCC3)CC2)c2ccccc21` (stereo unspecified) are 59% and 38%.
As for `O=C1NCN(c2ccccc2)C12CCN([C@H]1CC[C@@H]3CCCc4cccc1c43)CC2`, the Selectivity ratio in the experiment listed under Homo sapiens [3], in the experiment filed under Homo sapiens [4] and in the experiment filed under Homo sapiens [5] was 100 throughout.
As to `CC(C)C1CCC(N2CCC(N3C(=O)Cc4ccccc43)CC2)CC1` (stereo unspecified), the figures for the Activity in experiment [1] and in experiment [2] were 49% and 100%, respectively.
On to `O=C1Cc2ccccc2N1C1CCN(C2C3CCCC2CCC3)CC1` (stereo unspecified), for which the Activity is 30% in experiment [1] and 45% in experiment [2].
On to `CC(c1ccccc1)N1CCC(N2C(=O)Cc3ccccc32)CC1` (stereo unspecified), for which the Activity in experiment [6] turned out to be 37.5%; in experiment [2], 76%.
For `CCC1C(=O)N(C2CCN([C@H]3CC[C@@H](C(C)C)CC3)CC2)c2ccccc21` (stereo partly specified), the Activity in experiment [1] stood at 44%; in experiment [2], 95%.
The corresponding values for `O=C1Cc2ccccc2N1C1CCN(C2CC[C@H]3CCCc4cccc2c43)CC1` (stereo partly specified) are 18% and 107%.
The corresponding values for `CCC(C)(C)[C@H]1CC[C@@H](N2CCC(N3C(=O)Cc4ccccc43)CC2)CC1` are 39% and 18.5%.
Regarding `O=C1Cc2ccccc2N1C1CCN(C2CCCCCCC2)CC1`, the Activity in experiment [1] came out at 23.4%; in experiment [6] it was 38%; in experiment [2], 54%.
For `CCC1C(=O)N(C2CCN(C3CCCCCCC3)CC2)c2ccccc21` (stereo unspecified), the figures for the Activity in experiment [1] and in experiment [2] were 63% and 62%, respectively.
Take `O=C1CCc2ccccc2N1C1CCN(C2CCCCCCC2)CC1`: in experiment [2], the Activity turned out to be 32%.
With `CCC[C@H]1CC[C@@H](N2CCC(N3C(=O)Cc4ccccc43)CC2)CC1`, the values for the Activity in experiment [1] and in experiment [2] were 28% and 62%, respectively.
Regarding `CC1C(=O)N(C2CCN(C3CCCCCCC3)CC2)c2ccccc21` (stereo unspecified), the values for the Activity in experiment [1] and in experiment [2] were 53.2% and 40%, respectively.
The corresponding values for `CC(C)C1CCC(N2CCC(N3C(=O)CCc4ccccc43)CC2)CC1` (stereo unspecified) are 50% and 75%.
With `CC(C1CCCCC1)N1CCC(N2C(=O)Cc3ccccc32)CC1` (stereo unspecified), the Activity in experiment [1] turned out to be 80.5%; in experiment [6], 48%; in experiment [2] it was 60%.
Turning to `CC1C(=O)N(C2CCN([C@H]3CC[C@@H](C(C)C)CC3)CC2)c2ccccc21` (stereo partly specified), the Activity came to 84.3% in experiment [1] and 100% in experiment [2].
